The chains behind the UniProt entries cited, without tags or fusion partners. Residues count along the entry.
UniProt P32241, 31-457: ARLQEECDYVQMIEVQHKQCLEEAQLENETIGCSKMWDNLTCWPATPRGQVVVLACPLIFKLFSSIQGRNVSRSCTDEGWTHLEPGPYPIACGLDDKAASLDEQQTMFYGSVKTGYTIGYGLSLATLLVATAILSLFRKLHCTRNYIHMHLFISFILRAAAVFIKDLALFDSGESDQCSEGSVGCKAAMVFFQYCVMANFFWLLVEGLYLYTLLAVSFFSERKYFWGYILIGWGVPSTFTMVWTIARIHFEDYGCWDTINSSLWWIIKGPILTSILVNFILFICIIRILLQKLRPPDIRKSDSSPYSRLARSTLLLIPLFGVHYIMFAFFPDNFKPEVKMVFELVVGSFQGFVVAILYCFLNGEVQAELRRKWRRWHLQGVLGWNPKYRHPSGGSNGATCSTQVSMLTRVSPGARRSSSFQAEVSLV

In publication PMC12264551 (Molecular Pharmacology, 2025):

Biological target: VPAC1R (Homo sapiens, UniProt P32241)
Assay: Live cell cAMP accumulation (GloSensor), COS-7 cells transfected with VPAC1R
Assay type: cell-based
Design: host or cells: COS-7
Settings: VIP + vehicle, Fig. 6E, fraction of greatest slope, ± SEM, n = 3-5

## CC[C@H](C)[C@H](NC(=O)[C@H](CO)NC(=O)[C@H](CC(N)=O)NC(=O)[C@H](CC(C)C)NC(=O)[C@H](Cc1ccc(O)cc1)NC(=O)[C@H](CCCCN)NC(=O)[C@H](CCCCN)NC(=O)[C@@H](NC(=O)[C@H](C)NC(=O)[C@H](CCSC)NC(=O)[C@H](CCC(N)=O)NC(=O)[C@H](CCCCN)NC(=O)[C@H](CCCNC(=N)N)NC(=O)[C@H](CC(C)C)NC(=O)[C@H](CCCNC(=N)N)NC(=O)[C@@H](NC(=O)[C@H](Cc1ccc(O)cc1)NC(=O)[C@H](CC(N)=O)NC(=O)[C@H](CC(=O)O)NC(=O)[C@@H](NC(=O)[C@H](Cc1ccccc1)NC(=O)[C@@H](NC(=O)[C@H](C)NC(=O)[C@H](CC(=O)O)NC(=O)[C@H](CO)NC(=O)[C@@H](N)Cc1c[nH]cn1)C(C)C)[C@@H](C)O)[C@@H](C)O)C(C)C)C(=O)N[C@@H](CC(C)C)C(=O)N[C@@H](CC(N)=O)C(N)=O [VIP, vasoactive intestinal peptide]
  Normalized Maximum: 0.95 ± 0.01
